This assay addresses T1, recombinant TDP1 (Homo sapiens, UniProt Q9NUW8).
T1 construct: incubated with 40 pM full-length recombinant TDP1 or TDP1 (148–608)
In words: in vitro gel-based fluorescence TDP1 catalytic assay. Format: biochemical. The method, then: We subjected select virtual screen hits to evaluation of TDP1 inhibitory potencies using in vitro gel-based fluorescence TDP1 catalytic assays (Fig. 2). […] To further explore this class of compounds, we purchased from TargetMol a library of approximately 90 β-lactams as 10 mM solutions in DMSO. […] We examined TDP1 inhibitory potencies of the compounds using the in vitro gel-based fluorescence assays as previously described[21]–[24]. Briefly, a 5’-Cy5-labeled DNA substrate (N14Y, 5’-Cy5-[…]-pY-3’, 1 nM) was incubated in TDP1 reaction buffer with recombinant TDP1 or truncated TDP1(148–608) (40 pM) in the absence or presence of inhibitors for 15 min at room temperature. […] The TDP1 inhibition IC50 values were calculated based on gel images of the cleavage product (N14P, 5’-Cy5-[…]-p-3’) (Fig. 3A and Table S2).
The inhibition of TDP1 and TDP2 were conducted according to gel-based methods as previously described[21]–[24],[45]. […] The IC50 values of the TDP1 inhibitors were calculated by comparing the percentage of the cleavage product (N14P, 5´Cy5-[…]-p-3´) produced to that in the DMSO control. The IC50 values of the TDP2 inhibitors were calculated by comparing the percentage of the cleavage product (PN18, 5’-p-[…]-Cy5-3’) produced to that in the DMSO control.

By UniProt entry, the sequences of proteins in these tests, tags left out.
UniProt Q9NUW8, whole entry: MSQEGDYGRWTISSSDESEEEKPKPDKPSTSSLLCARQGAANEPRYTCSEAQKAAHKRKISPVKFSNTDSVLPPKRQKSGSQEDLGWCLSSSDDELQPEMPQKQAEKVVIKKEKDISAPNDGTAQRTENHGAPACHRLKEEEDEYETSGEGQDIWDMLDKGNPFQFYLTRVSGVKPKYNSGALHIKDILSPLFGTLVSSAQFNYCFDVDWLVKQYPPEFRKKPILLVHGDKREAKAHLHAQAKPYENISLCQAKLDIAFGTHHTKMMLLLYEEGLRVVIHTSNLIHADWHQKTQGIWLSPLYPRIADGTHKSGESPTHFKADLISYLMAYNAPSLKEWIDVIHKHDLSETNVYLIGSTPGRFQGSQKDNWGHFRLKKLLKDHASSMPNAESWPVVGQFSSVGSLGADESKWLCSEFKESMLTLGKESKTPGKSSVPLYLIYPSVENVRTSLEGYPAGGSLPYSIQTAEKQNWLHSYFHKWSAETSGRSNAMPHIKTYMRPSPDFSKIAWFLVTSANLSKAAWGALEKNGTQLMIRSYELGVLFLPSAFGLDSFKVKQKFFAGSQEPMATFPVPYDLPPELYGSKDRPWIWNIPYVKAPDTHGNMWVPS

Molecules are shown by their SMILES.

In the case of `C[C@@H](O)[C@H]1C(=O)N2C(C(=O)OCOC(=O)C(C)(C)C)=C(SC3CN(C4=NCCS4)C3)[C@H](C)[C@H]12` [LC3, Tebipenem Pivoxil], the IC50 (in general, the concentration that inhibits the measured activity by half) is more than 1000 µM.
